From PubChem BioAssay AID1779 (Sanford-Burnham Center for Chemical Genomics, 2009) come the findings set out here.

Chains of the proteins cited; added tags and fusions are not shown.
UniProt Q9Y2R2, whole entry: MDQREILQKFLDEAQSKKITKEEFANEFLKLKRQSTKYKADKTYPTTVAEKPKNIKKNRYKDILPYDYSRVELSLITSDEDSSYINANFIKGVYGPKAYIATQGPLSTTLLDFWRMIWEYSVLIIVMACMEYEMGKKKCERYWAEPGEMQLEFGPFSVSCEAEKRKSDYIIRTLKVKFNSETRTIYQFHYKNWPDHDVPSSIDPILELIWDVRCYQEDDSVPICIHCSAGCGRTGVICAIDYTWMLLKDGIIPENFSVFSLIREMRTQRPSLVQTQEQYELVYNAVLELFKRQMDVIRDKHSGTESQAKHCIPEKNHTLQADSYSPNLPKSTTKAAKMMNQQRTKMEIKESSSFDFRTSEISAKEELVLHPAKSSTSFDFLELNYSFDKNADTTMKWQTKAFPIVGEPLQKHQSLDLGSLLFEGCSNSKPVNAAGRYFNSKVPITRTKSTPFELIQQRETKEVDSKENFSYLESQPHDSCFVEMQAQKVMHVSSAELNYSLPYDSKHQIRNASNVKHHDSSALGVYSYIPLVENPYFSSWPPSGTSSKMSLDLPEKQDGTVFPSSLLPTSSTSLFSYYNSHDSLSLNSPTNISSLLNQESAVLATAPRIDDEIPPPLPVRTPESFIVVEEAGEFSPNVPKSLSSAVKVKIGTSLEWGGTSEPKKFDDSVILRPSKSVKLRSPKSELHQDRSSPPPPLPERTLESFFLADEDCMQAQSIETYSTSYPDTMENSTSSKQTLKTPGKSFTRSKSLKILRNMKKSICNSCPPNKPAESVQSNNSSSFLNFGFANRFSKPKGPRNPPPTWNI

A word on the inhibition: it is the relative decrease from the control value, in per cent.

Only a part is listed here, and it is no random draw. Some tests of the compounds listed are not included; inactive here does not mean inactive elsewhere. Calls of active or inactive are those of the source. Cut-off read from the data, not from the text of the source: active = inhibition above about 50%; inactive = the rest.

The target in this test is Tyrosine-protein phosphatase non-receptor type 22 (Homo sapiens) (UniProt Q9Y2R2). The test can be described thus: PTPN22 lymphoid phosphatase activity blockers – biochemical, fluorescence intensity, uHTS (AID 1779).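 Note: plate controls were vehicle with enzyme for no effect and no enzyme for full effect.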 The following applies: recombinant LYP phosphatase, at 11.5 µM, stronger effect = higher value.
For the compound `CN(C)C1(CNC(=O)c2ccc(Br)cc2)CCCCC1`, the inhibition was inactive: -10.1%.
Take `COc1cc(C(=O)NCC2(N(C)C)CCCCC2)c([N+](=O)[O-])cc1OC`: the inhibition was inactive: -4.8%.
Regarding `COc1cccc(C(=O)NCC2(N3CCCCC3)CCCCC2)c1`, the inhibition is inactive: -3.2%.
As for `COc1ccc(Cl)cc1C(=O)NCC1(N(C)C)CCCCC1`, the inhibition is inactive: -6.6%.
`O=C(NCC1(N2CCCCC2)CCCCC1)c1cccc(Cl)c1`: the inhibition was inactive: -2.1%.
Regarding `O=C(OC1CN2CCC1CC2)C(CO)(c1ccccc1)c1ccccc1` (centres undefined), the inhibition is inactive: 4.2%.
With `COc1ccc(Br)c(C(=O)NCC2(N3CCCCC3)CCCCC2)c1`, the inhibition is inactive: 6.9%.
With `CN(C)c1cccc(C(=O)NCC2(N(C)C)CCCCC2)c1`, the inhibition is inactive: -6.1%.
Regarding `CC(C)Oc1ccc(C(=O)NCC2(N(C)C)CCCCC2)cc1`, the inhibition was inactive: -11.6%.
Turning to `O=C(NCC1(N2CCCCC2)CCCCC1)c1cc([N+](=O)[O-])ccc1Cl`, the inhibition is inactive: -2.8%.
For `CN1[C@@H]2CC[C@H]1CC(OC(=O)C(O)(c1ccccc1)c1ccccc1)C2` (some centres undefined) the value was inactive: -5.5%; for `CC(C)N1C(=O)CC2(CCN(CCOC(=O)C(O)(c3ccccc3)c3ccccc3)CC2)C1=O`, inactive: -4.5%.
For `CCN(CC)CC(C)C(C)OC(=O)C(O)(c1ccccc1)c1ccccc1` (centres undefined), the inhibition was inactive: -5.5%.
As for `COc1cc(SC)ccc1C(=O)NCC1(N(C)C)CCCCC1`, the inhibition is inactive: -4.2%.
On to `Cc1ccc(C(=O)NCC2(N3CCCCC3)CCCCC2)cc1`, for which the inhibition is inactive: -9.4%.
As for `Cc1ccccc1C(=O)NCC1(N2CCCCC2)CCCCC1`, the inhibition was inactive: 6.1%.
Regarding `CN(C)C1CCCC1OC(=O)C(O)(c1ccccc1)c1ccccc1` (centres undefined), the inhibition was inactive: -2.1%.
Turning to `CN(C)c1ccc(C(=O)NCC2(N(C)C)CCCCC2)cc1`, the inhibition was inactive: -4%.
With `C=CCN1CCN(CCOC(=O)C(O)(c2ccccc2)c2ccccc2)CC1`, the inhibition is inactive: -13.1%.
As for `O=C(NCC1(N2CCCCC2)CCCCC1)c1cc(F)c(F)cc1Cl`, the inhibition was inactive: -6.8%.
Turning to `Cc1cc(C(=O)NCC2(N3CCCCC3)CCCCC2)ccc1[N+](=O)[O-]`, the inhibition is inactive: -7.6%.
In the case of `CCN1CCCC(OC(=O)C2(O)c3ccccc3C=Cc3ccccc32)C1` (centres undefined), the inhibition was inactive: 2.9%.
As for `O=C(NCC1(N2CCCCC2)CCCCC1)c1cccc(Br)c1`, the inhibition is inactive: -3.9%.
As to `COc1ccc(C(=O)NCC2(N(C)C)CCCCC2)cc1`, the inhibition was inactive: -10%.
